Results published in ChEMBL document CHEMBL5543164 (J Med Chem, 2024).
Calls of active or inactive are those of the source. No cut-off for these calls is given here.

Chains of the proteins cited; added tags and fusions are not shown. Lines headed by an entry give the natural chain unless they say otherwise; changes in a name come on top.
UniProt O00750: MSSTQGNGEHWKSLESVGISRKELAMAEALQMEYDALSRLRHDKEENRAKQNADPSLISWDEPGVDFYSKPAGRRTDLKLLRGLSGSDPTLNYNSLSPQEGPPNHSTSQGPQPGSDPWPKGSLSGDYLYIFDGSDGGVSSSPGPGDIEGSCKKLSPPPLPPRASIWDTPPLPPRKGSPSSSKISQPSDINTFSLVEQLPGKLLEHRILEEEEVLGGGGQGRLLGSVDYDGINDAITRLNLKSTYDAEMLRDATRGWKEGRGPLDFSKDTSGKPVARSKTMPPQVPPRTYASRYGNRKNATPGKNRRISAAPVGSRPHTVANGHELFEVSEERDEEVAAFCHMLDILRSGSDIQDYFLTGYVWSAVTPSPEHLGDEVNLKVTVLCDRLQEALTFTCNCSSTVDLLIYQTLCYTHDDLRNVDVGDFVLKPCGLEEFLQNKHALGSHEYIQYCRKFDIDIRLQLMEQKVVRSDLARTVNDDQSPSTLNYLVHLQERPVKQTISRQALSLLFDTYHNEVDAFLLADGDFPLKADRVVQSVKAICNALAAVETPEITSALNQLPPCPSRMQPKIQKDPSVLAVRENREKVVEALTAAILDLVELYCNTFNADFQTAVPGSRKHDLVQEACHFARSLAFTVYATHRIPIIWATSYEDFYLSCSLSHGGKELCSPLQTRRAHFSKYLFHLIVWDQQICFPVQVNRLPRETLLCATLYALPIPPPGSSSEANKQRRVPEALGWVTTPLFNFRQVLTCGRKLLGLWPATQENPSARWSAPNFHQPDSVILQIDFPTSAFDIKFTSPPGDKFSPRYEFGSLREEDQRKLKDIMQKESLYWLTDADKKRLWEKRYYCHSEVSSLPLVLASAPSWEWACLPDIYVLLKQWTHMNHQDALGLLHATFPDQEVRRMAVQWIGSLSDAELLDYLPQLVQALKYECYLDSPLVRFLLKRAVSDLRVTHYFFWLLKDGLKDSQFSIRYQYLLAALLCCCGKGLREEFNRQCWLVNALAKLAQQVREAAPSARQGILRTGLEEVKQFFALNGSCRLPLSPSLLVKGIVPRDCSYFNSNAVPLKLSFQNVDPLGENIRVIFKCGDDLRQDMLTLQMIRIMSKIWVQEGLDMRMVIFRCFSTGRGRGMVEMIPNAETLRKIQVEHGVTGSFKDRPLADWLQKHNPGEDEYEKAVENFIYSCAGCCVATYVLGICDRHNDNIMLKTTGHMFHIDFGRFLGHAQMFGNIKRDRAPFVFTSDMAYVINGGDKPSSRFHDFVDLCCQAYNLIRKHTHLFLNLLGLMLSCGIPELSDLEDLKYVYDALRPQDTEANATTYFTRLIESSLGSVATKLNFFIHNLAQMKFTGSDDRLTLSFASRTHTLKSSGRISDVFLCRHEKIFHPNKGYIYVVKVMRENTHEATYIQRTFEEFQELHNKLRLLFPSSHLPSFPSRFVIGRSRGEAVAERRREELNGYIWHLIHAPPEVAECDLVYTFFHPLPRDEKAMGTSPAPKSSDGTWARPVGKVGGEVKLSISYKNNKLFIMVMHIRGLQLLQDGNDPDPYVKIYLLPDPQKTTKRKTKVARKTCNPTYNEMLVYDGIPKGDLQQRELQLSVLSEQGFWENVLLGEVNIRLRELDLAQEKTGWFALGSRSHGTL
UniProt P48736: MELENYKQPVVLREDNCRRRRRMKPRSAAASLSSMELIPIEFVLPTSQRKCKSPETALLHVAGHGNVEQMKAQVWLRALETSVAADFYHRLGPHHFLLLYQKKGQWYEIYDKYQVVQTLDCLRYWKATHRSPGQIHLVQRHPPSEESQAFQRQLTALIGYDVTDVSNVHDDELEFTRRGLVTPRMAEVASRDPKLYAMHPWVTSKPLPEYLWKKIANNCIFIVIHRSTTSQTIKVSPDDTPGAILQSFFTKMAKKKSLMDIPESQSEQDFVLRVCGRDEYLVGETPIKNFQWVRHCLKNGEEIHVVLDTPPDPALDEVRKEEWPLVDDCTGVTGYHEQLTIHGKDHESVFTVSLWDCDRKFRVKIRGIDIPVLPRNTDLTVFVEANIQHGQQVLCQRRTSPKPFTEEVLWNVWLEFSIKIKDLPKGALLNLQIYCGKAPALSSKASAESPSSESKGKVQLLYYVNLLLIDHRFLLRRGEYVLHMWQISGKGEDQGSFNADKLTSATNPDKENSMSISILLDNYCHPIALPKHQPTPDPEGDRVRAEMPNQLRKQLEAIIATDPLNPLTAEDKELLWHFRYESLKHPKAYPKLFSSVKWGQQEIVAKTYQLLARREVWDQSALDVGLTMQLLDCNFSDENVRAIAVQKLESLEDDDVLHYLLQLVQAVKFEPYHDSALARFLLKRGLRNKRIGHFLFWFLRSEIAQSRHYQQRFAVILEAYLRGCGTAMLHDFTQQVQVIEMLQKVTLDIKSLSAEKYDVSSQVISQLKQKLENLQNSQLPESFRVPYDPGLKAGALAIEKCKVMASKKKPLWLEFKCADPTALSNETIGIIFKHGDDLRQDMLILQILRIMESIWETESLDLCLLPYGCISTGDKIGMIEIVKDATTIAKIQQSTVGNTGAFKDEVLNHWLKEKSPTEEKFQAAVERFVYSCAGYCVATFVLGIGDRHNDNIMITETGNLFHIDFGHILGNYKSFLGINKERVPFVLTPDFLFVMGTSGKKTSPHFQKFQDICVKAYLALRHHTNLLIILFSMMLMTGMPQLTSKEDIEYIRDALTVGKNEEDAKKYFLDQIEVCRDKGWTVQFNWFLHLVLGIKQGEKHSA
UniProt P23443: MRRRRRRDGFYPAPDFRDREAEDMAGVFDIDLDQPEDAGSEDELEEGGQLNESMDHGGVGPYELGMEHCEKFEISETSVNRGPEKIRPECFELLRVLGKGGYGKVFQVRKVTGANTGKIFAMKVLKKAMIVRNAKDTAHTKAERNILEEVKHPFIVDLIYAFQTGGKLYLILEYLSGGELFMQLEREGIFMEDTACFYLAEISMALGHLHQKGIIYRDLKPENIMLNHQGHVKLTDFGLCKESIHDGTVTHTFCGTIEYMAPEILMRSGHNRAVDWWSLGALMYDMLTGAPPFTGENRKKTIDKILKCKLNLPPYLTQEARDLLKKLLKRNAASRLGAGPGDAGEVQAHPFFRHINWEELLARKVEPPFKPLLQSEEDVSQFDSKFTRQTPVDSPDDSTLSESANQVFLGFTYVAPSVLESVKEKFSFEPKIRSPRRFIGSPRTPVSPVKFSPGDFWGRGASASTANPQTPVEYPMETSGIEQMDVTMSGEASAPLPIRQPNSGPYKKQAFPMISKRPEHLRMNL
UniProt Q13541: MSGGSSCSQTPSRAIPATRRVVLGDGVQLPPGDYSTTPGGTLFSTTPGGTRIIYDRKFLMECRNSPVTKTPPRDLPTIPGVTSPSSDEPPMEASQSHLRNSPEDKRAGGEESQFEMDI
UniProt P31749: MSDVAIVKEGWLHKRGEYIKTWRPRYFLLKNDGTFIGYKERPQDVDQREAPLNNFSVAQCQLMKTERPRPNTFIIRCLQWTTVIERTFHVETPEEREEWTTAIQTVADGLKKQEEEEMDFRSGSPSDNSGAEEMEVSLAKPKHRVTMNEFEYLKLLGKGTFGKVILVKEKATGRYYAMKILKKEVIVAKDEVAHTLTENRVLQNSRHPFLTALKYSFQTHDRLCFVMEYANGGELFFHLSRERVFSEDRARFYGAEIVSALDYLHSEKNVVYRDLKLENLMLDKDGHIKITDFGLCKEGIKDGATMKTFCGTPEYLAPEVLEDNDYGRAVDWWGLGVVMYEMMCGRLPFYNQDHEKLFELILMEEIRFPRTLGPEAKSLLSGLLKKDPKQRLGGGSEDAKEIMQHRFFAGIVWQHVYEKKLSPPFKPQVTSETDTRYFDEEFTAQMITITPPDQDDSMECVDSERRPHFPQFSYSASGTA
UniProt Q8N122, whole entry, looked up: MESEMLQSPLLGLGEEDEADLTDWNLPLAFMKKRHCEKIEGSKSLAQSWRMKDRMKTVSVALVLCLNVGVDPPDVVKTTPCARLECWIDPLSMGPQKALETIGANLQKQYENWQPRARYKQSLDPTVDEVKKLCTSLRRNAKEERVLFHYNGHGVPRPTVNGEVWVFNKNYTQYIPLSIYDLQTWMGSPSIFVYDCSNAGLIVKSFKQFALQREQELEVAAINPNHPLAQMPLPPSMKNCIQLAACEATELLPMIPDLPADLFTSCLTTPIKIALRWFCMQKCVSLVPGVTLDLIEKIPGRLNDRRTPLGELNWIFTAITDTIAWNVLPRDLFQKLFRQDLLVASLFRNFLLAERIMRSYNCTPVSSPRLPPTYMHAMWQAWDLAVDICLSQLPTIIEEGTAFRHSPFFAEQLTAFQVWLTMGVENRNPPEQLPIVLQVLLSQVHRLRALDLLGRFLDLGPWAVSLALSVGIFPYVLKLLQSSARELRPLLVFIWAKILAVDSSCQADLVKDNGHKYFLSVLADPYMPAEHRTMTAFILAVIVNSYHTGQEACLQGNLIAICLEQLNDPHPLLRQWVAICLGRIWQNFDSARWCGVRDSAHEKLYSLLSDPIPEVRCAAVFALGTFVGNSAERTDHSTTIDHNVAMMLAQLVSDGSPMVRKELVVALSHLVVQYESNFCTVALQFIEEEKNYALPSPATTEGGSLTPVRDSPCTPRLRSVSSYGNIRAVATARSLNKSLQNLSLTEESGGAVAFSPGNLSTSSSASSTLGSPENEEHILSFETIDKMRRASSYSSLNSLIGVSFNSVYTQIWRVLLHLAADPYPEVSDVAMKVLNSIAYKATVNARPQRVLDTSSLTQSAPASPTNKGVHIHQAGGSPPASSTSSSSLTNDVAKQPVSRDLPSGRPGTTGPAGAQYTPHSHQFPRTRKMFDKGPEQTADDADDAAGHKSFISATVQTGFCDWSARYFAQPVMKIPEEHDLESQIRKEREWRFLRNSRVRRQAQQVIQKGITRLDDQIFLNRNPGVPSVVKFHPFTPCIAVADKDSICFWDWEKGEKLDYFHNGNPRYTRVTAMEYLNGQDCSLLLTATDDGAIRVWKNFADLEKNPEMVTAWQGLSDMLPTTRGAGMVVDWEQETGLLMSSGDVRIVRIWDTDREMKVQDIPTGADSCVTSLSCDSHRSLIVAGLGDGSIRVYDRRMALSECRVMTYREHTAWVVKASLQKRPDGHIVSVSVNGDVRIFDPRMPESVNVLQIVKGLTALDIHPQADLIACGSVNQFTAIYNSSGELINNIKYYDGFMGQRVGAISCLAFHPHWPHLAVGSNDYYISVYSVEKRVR
UniProt Q9BVC4, whole entry, looked up: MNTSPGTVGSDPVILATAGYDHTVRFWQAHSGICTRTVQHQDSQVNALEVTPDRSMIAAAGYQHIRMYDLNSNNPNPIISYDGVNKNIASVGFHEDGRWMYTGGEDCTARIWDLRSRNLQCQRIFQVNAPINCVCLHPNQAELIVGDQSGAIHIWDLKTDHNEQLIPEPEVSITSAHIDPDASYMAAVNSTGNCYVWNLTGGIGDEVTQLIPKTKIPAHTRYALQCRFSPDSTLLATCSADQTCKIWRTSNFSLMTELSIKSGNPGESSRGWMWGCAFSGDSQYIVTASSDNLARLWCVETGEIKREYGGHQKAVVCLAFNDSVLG
UniProt Q9BPZ7, whole entry, looked up: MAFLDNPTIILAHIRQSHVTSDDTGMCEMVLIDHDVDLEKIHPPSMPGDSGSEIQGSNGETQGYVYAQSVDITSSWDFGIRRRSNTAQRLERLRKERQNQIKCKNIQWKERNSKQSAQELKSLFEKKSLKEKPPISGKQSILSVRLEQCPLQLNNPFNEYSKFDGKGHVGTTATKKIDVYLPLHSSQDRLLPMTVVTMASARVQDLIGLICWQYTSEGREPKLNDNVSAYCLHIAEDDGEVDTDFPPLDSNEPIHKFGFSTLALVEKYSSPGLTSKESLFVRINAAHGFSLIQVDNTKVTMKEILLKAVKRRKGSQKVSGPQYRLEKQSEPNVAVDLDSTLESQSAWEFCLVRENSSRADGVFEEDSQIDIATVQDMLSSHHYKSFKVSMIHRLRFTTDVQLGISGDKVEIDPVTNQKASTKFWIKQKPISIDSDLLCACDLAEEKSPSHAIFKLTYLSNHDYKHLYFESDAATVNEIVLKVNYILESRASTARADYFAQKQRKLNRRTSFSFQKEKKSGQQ

Columns and labels:
[1] = target: Phosphatidylinositol 4-phosphate 3-kinase C2 domain-containing subunit beta (Homo sapiens) (UniProt O00750); assay: Binding affinity to PIK3C2B (unknown origin)
[2] = target: Phosphatidylinositol 4,5-bisphosphate 3-kinase catalytic subunit gamma isoform (Homo sapiens, UniProt P48736); assay: Binding affinity to PIK3CG (unknown origin)
[3] = target: T1, Phosphatidylinositol 4,5-bisphosphate 3-kinase catalytic subunit delta isoform (Homo sapiens) (UniProt O00329); assay: Binding affinity to PIK3CD (unknown origin)
T1 sequence (whole entry): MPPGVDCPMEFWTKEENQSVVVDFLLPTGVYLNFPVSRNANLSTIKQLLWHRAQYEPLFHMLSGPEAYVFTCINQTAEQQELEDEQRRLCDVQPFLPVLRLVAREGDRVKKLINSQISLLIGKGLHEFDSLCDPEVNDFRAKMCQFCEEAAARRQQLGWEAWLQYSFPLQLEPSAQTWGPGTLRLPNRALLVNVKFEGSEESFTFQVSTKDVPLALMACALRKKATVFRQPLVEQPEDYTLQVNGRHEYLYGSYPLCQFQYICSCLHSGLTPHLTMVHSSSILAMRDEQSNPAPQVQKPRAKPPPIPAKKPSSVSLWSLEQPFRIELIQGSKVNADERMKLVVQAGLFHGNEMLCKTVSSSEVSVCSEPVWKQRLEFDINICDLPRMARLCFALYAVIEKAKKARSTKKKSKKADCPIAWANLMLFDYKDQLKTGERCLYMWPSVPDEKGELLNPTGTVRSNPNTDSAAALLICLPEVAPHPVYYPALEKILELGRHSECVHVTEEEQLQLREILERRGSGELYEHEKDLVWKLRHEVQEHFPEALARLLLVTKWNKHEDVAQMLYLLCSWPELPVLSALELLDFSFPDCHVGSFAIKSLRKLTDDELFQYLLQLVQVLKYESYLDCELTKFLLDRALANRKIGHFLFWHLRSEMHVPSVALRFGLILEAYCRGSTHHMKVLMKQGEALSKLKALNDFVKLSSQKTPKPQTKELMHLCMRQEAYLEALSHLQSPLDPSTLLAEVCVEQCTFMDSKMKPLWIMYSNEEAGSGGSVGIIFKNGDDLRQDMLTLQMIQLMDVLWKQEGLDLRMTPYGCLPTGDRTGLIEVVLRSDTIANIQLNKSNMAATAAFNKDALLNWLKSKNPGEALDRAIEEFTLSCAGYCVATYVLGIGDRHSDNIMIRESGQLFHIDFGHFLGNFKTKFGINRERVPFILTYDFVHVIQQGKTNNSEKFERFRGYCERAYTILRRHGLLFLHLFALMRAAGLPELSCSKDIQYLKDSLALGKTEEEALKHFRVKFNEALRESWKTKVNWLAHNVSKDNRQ

[4] = target: Ribosomal protein S6 kinase beta-1 (Homo sapiens) (UniProt P23443); assay: Inhibition of 70S6K phosphorylation at Thr-389 residue in human MCF7 cells at 1 to 10 uM incubated for 24 hrs by Western blotting analysis; format: cell-based; settings: dose 1-10 µM
[5] = target: Eukaryotic translation initiation factor 4E-binding protein 1 (Homo sapiens) (UniProt Q13541); assay: Inhibition of 4EBP1 phosphorylation at T37146 residue in human MCF7 cells at 1 to 10 uM incubated for 24 hrs by Western blot analysis; format: cell-based; settings: dose 1-10 µM
[6] = target: RAC-alpha serine/threonine-protein kinase (Homo sapiens) (UniProt P31749); assay: Inhibition of AKT phosphorylation at S473 residue in human MCF7 cells at 1 to 10 uM incubated for 24 hrs by Western blot analysis; format: cell-based; settings: dose 1-10 µM
mTORC1 (Homo sapiens) = mTORC1 (Homo sapiens) (UniProt P42345+Q8N122+Q9BVC4); assay: Inhibition of mTORC1 (unknown origin) by Lance ultra assay; format: protein-complex assay
mTORC2 (Homo sapiens) = mTORC2 (Homo sapiens) (UniProt P42345+Q6R327+Q9BVC4+Q9BPZ7); assay: Inhibition of mTORC2 (unknown origin) by Lance ultra assay; format: protein-complex assay

Activity [1] | Activity [2] | Activity [3] | inhibition (mTORC1 (Homo sapiens)) | inhibition (mTORC2 (Homo sapiens)) | SMILES | inhibition [4] | inhibition [5] | inhibition [6]
inactive | inactive | inactive | Active | Active | O=C(Nc1ccc(-c2nc(N3C4CCC3COC4)nc(N3C4CCC3COC4)n2)cc1)Nc1ccc2c(c1)COC2=O | Active | Active | Active
– | – | – | – | – | CN(C)C1CCN(C(=O)c2ccc(NC(=O)Nc3ccc(-c4nc(N5CCOCC5)nc(N5CCOCC5)n4)cc3)cc2)CC1 [GEDATOLISIB] | Active | Active | Active
